According to patent US20220000980A1, “Compositions and Methods for use of CXCL12 in Treatment of Bone Disorders” (NEW YORK UNIVERSITY, priority 2018, published 2022):

Test system: monocortical tibial defect
Assay: Monocortical tibial defect repair in mice (microCT new bone volume, Movat's pentachrome histology)
Format: in vivo
Experimental: Bilateral tibial monocortical defects (1.0 mm, circular) were created in 16-week-old adult C57BL/6 female mice, which were sacrificed at post-surgical day (PSD) 10 (n=3 to 6). This model heals reliably through intramembranous ossification [Carrera, R., et al., JBMR 30 (Suppl 1), 2015]. At the time of surgery, each defect was treated with 5 μg of rhBMP-2 (R&D Systems) or rhCXCL12a (R&D Systems) dissolved in the liquid phase of a hydrogel composed of hyaluronic acid and chitosan (BRTI). Hydrogel alone was used as the vehicle control. Once daily on PSD 5 to 8, the right tibia was subjected to a sinusoidal, compressive axial load (120 cycles at 2 Hz with 6 N peak load) using a mechanical testing system (TA ElectroForce 3200) [Norman, S. C., et al., J Biomech, 2015. 48(1): p. 53-58]. MicroCT analysis: Tibiae were fixed in 4% paraformaldehyde overnight at 4° C., and defects were scanned at a 6-micron voxel size (SkyScan 1172). Newly mineralized bone tissue was quantified in a volume of interest that extended 1 mm from each edge of the defect in the longitudinal direction using an adaptive thresholding routine (CTAn Software, Bruker). Tibiae were decalcified in 9% formic acid and paraffin embedded. Thin sections (7 μm) were stained with modified Movat's pentachrome staining. Student's T-test was used to determine significance for P<0.05.

Substance: rhBMP-2: FDA-approved therapeutic agent used clinically to enhance bone repair; clinical gold standard (R&D Systems)
- cartilage formation (Movat's pentachrome staining) (monocortical tibial defect, 5 μg in hydrogel, PSD 10): promoted cartilage formation
- new bone volume by microCT compared to vehicle controls (non-loaded, 5 μg in hyaluronic acid/chitosan hydrogel at surgery, post-surgical day 10, C57BL/6 female mice): 2.08 fold
